# Values quoted from earlier work, collected in patent publication US20070014866A1, “Composition for improving the efficacy and reducing the side effects of omega 3 fatty acids, fish oils and cardiovascular and diabetic treatments” (priority 2005, published 2007).
# Columns and labels:
# [1] = 900 mg pantethine daily, preferably 300 mg three times daily; versus placebo; diabetic and non-diabetic individuals
# [2] = human, in vivo
smiles,measurement,setting,value
"CC(C)(CO)[C@@H](O)C(=O)NCCC(=O)NCCSSCCNC(=O)CCNC(=O)[C@H](O)C(C)(C)CO [pantethine, Pantethine]",lowering total cholesterol levels in the blood,[1],significantly more effective than placebo
same,lowering trigylceride levels in the blood,[1],significantly more effective than placebo
same,adverse side effects,[2],without adverse side effects
same,cholesterol and triglyceride levels,[2],lower cholesterol and triglyceride levels
